This assay relates to Oct4 in adult human fibroblasts. Kind of assay: Effect of BMP-2 on Oct4 expression with FGF2. The assay is classed as cell-based. The note with it: BMP-2 1 ng/ml, FGF2 4 ng/ml. As to the method: Primary adult human dermal fibroblasts from connective tissue isolated from tissue biopsy from a below knee amputation of a person were received from ATCC(CRL-2352) at passage 2. Cells were cultured in medium consisting of DMEM:Ham's F12 ([…], MediaTech) with 10% Fetalclone III (Hyclone, Logan, Utah). The DMEM (without L-Gln or phenol red) was supplemented with 4 mM fresh L-Gln (MediaTech) prior to use. Cultures were carried out in a 37° C. incubator in a humidified environment of 5% CO2, 5% O2, and 90% N2. The number of population doublings calculated as log2. Cells were seeded at 100,000 cells per T25 flask at each passage (Falcon). When used, human recombinant FGF2 (Chemicon or Protide) and BMP-2 (R&D Systems) was supplemented into medium at 4 ng/ml and 1 ng/ml respectively. Human muscle derived fibroblasts were derived from surplus muscle tissue from the calf flexor muscle used for a surgical knee repair in an adult. Tissue was rinsed in Leibowitz L-15 medium (MediaTech) containing 10 μg/ml gentamicin (Invitrogen) and 2.5 μg/ml fungizone (Hyclone) and minced using a sterile scalpel and digested with 1800 units/ml collagenase Type IV for 1 hour at 37° C. Cell lines were established by culture at 5% O2 from the beginning and working stocks cryopreserved at passage 2. […]

Results on one molecule are retold here after patent publication US9290740B2, “Use of basic fibroblast growth factor in the de-differentiation of animal connective tissue cells” (Worcester Polytechnic Institute, priority 2008, dated 2016).

B1: BMP-2: BMP-2 (R&D Systems) supplemented into medium at 1 ng/ml (protein, UniProt P12643 283-396, looked up)
Bone morphogenetic protein 2: QAKHKQRKRLKSSCKRHPLYVDFSDVGWNDWIVAPPGYHAFYCHGECPFPLADHLNSTNHAIVQTLVNSVNSKIPKACCVPTELSAISMLYLDENEKVVLKNYQDMVVEGCGCR
Turning to B1, the “effect on expression of Oct4 with FGF2” value is given as “inhibitory effect”.
